Results on one molecule are retold here after patent publication US20250136586A1, “Substituted 7-(Pyrimidin-4-yl)Quinolin-4(1H)-One Compounds as Cyclin Dependent Kinase Inhibitors” (BeiGene, Ltd., priority 2022, published 2025).

The chains behind the UniProt entries cited, without tags or fusion partners.
UniProt P11802, whole entry: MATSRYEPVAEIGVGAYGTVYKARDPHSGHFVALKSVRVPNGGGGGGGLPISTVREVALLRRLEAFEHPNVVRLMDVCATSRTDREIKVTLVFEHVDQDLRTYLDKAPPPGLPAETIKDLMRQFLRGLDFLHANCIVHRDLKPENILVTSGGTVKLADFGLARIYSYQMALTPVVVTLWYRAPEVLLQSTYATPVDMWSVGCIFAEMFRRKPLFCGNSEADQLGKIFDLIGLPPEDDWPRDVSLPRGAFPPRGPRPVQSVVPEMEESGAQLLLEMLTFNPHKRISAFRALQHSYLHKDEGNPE
UniProt Q00534, whole entry: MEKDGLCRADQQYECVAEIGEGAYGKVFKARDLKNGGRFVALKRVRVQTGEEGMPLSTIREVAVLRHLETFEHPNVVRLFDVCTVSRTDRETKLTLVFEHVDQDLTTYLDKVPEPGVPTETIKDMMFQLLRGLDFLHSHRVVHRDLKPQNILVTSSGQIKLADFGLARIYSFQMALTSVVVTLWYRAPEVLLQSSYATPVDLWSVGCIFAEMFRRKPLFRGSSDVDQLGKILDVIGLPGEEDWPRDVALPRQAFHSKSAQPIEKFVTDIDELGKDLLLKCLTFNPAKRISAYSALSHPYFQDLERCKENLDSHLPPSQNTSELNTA
UniProt P30281, whole entry partner: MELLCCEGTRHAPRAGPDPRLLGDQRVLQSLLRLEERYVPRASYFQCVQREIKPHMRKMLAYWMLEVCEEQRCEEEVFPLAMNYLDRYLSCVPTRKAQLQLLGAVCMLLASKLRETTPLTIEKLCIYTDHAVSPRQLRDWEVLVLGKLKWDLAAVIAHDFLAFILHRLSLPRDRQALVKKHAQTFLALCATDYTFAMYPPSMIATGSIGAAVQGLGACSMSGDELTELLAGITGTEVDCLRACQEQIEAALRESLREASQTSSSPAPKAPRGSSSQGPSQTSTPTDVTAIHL
UniProt P24385, whole entry partner: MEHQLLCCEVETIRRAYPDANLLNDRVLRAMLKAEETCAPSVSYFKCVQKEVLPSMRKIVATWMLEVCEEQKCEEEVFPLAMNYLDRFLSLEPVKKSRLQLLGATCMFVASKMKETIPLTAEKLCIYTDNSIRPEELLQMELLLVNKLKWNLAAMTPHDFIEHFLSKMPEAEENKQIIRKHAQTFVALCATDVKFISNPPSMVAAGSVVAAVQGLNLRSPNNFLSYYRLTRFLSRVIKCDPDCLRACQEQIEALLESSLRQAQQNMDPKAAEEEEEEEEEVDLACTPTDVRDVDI

Molecules are shown by their SMILES. pIC50: −log10 of the molar value.

In test [1] the target is CDK4/Cyclin D1 (Homo sapiens (Human), UniProt P11802). The test is described as follows: TR-FRET kinase inhibition assay, CDK4/Cyclin D1. The note with it: read-out: CDK4D1 IC50, 1 mM ATP, 0.15 μM Rb (Ser780)-biotin substrate. Background: Time-resolved FRET reads energy transfer from a long-lived donor to a nearby acceptor.
Test [2] addresses CDK6/Cyclin D3 (Homo sapiens (Human), UniProt Q00534). The test is described as follows: TR-FRET kinase inhibition assay, CDK6/Cyclin D3. The note with it: read-out: CDK6D3 IC50, 1 mM ATP, 0.15 μM Rb (Ser780)-biotin substrate. As to the method:
Compounds disclosed herein were tested for inhibition of CDK4/Cyclin D1 or CDK6/Cyclin D3 kinase in an assay based on the time-resolved fluorescence-resonance energy transfer (TR-FRET) methodology. The assay was carried out in 384-well low volume black plates in a reaction mixture containing CDK4/Cyclin D1 or CDK6/Cyclin D3, 1 mM ATP, 0.15 μM Rb (Ser780)-biotin substrate and 0-10 μM compound in buffer containing 50 mM HEPES pH7.0, 0.02% NaN3, 0.01% BSA, 0.1 mM Orthovanadate, 50 mM MgCl2, 1 mM DTT and 0.005% Tween-20. The kinase was incubated with compound for 60 minutes at room temperature and the reaction was initiated by the addition of ATP and Rb (Ser780)-biotin substrate. After reaction at room temperature for 120 minutes, an equal volume of stop/detection solution was added according to the manufacture's instruction (Cisbio Bioassays). The stop/detection solution contained Streptavidin-XL665 and Anti-pRb (Ser780) mAb-Eu Cryptate in Detection buffer (Cisbio Bioassays). Plates were incubated at room temperature for 60 minutes, and the TR-FRET signals (ex337 nm, em665 nm/620 nm) were recorded on a PHERAstar FSX plate reader (BMG Labtech). The inhibition percentage of CDK4/Cyclin D1 or CDK6/Cyclin D3 kinase activity in presence of increasing concentrations of compounds was calculated based on the ratio of fluorescence at 665 nm to that at 620 nm. […]

The term pIC50 denotes the negative decadic logarithm of the IC50, by convention in mol/L. On to `CC(C)n1c(CN2CC3CCC(C2)O3)cc(=O)c2ccc(-c3nc(N[C@@H]4CCOC[C@H]4O)ncc3F)cc21`, for which the pIC50 in test [1] is 7.77; in test [2], 6.43.
